{"source": "paper PMC7588595", "about": "“Small-molecule active pharmaceutical ingredients of approved cancer therapeutics inhibit human aspartate/asparagine-β-hydroxylase” (Bioorganic & Medicinal Chemistry, 2020)", "target": "T1, His6-AspH315–758 (Homo sapiens, UniProt Q12797)", "T1 construct": "A mixture of SYPRO orange (1‰v/v) and His6-AspH315–758 (4 μM) in 50 mM aqueous HEPES buffer; made in house; host or cells: Escherichia coli BL21 (DE3), pET-28a(+) vector", "T1 sequence (Q12797 315-758)": "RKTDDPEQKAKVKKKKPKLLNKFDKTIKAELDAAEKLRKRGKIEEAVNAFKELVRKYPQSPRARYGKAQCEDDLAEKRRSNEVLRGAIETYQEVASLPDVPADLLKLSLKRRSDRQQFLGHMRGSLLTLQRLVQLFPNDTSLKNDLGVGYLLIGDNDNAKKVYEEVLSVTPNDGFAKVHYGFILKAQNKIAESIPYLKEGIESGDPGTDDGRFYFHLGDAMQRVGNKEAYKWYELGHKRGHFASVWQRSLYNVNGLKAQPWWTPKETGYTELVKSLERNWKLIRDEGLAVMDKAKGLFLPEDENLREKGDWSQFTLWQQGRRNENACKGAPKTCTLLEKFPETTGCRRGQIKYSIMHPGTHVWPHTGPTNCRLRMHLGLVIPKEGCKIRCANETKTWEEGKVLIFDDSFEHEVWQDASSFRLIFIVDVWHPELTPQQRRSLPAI", "experiment": "AspH differential scanning fluorimetry (DSF) assay, melting temperature shift", "format": "binding", "procedure": "A mixture of SYPRO orange (1‰v/v) and His6-AspH315–758 (4 μM) in 50 mM aqueous HEPES buffer (pH 7.5, 150 mM NaCl, 50 μM NiCl2) was carefully pipetted into a 96-well VWR PCR-plate (38 μL per well). An inhibitor solution (0.8 mM in DMSO) or a negative control sample (pure DMSO) was added to each well (2 μL per well, final inhibitor concentration of 40 μM) and the resulting solutions were gently mixed using a pipette. The plate was sealed with optical tape (Bio-Rag, iCycler iQ), centrifuged (5 sec, 1000 rpm) and placed into a C1000Touch Thermal Cycler equipped with a CFX96 Real-Time System (Bio-Rad). The instrument was heated with a rate of 1 °C per cycle (starting at an initial temperature of 25 °C; 70 cycles total). Data were analyzed using Microsoft Excel and GraphPad Prism according to the literature.[107] DSF assays were performed in independent duplicates, each composed of technical duplicates (Supporting Fig. S4).", "note": "Values joined by “and” are separate entries in the source; they are usually repeats but may differ in a detail not shown here. Equal entries are not always repeated.", "data": [{"smiles": "Cc1c(N)nc([C@H](CC(N)=O)NC[C@H](N)C(N)=O)nc1C(=O)N[C@H](C(=O)N[C@H](C)[C@@H](O)[C@H](C)C(=O)N[C@H](C(=O)NCCc1nc(-c2nc(C(=O)NCCC[S+](C)C)cs2)cs1)[C@@H](C)O)[C@@H](O[C@@H]1O[C@@H](CO)[C@@H](O)[C@H](O)[C@@H]1O[C@H]1O[C@H](CO)[C@@H](O)[C@H](OC(N)=O)[C@@H]1O)c1c[nH]cn1", "note": "[Bleomycin A2, reference compound]", "values": [{"measurement": "Tm-shift (ΔTm) of AspH", "result": "−0.8 ± 0.4 °C and ~ −0.8 °C"}]}]}
